This note sets out measurements from PubChem BioAssay AID624040 (The Scripps Research Institute Molecular Screening Center, 2012).

Amino acid sequences for entries named in this document (tags omitted).
UniProt P08912, whole entry: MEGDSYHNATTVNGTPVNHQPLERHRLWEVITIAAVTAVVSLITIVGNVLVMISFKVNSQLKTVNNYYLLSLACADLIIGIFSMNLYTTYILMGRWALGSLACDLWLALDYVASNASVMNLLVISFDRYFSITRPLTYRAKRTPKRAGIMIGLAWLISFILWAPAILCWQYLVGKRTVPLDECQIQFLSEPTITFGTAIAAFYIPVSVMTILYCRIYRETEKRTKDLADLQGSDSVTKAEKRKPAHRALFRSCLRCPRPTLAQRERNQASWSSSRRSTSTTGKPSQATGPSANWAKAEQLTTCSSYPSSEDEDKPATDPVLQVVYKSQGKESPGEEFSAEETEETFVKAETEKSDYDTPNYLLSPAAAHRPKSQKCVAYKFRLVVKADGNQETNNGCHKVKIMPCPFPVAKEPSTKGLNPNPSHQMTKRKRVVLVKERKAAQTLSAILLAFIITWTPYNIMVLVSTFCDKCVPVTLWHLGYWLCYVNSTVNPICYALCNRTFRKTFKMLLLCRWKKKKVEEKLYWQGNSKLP

Only a part is listed here, and it is no random draw. Activity calls are given as the source filed them.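 How the source made its calls: active means inhibition above a per-plate cutoff, the mean of that plate's test compounds plus 3 SD (cut at about 27% in these data); inactive means the rest.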

For orientation: inhibition means the change of the read-out against control, counted positive when it falls.

The target of the assay is Muscarinic acetylcholine receptor M5 (Homo sapiens) (UniProt P08912). As to the kind of experiment: CHRM5 blockers of acetylcholine calcium response – CHO cells, Fluo-8 calcium fluorescence, primary screen (AID 624040).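 Further: 0% = acetylcholine EC80 with DMSO and 100% = DMSO without agonist.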 Conditions: CHO-hM5 cells, ACh EC80, at 3 µM, stronger effect = higher value.
For the compound `CCCCn1nnnc1C(c1cccc2ccccc12)N1CCC(n2c(=O)[nH]c3ccccc32)CC1` (centres undefined), the inhibition was inactive: 5.27%.
The same measure for `O=C1CCN(Cc2ccccc2)CC1`: inactive: 3.63%; for `CC(C)(C)n1nnnc1C(c1ccccc1)N1CCC(n2c(=O)[nH]c3ccccc32)CC1` (centres undefined): inactive: 5.33%.
Consider `CCOc1ccc(C)cc1CN(CCCl)CCCl`, for which the inhibition is inactive: 12.5%.
In the case of `COc1ccc(NC2CCN(CCc3ccccc3)CC2)c(OC)c1` it was inactive: 1.06%; in that of `CCOC(=O)N1CCC(Nc2ccc(F)cc2)CC1`, inactive: 10.2%.
Regarding `CCCCn1nnnc1C(c1cc2ccccc2o1)N1CCC(n2c(=O)[nH]c3ccccc32)CC1` (centres undefined), the inhibition is inactive: 4.84%.
The same measure for `O=P1(N(CCCl)CCCl)SCCCS1`: inactive: 2.1%; for `CCCCOc1ccc(C(=O)NCC2(N3CCOCC3)CCCCC2)cc1`: inactive: -3.14%.
In the case of `O=C(NCC1(N2CCCCC2)CCCCC1)c1ccc(F)cc1` it was inactive: 12.6%; in that of `O=c1[nH]c2ccccc2n1C1CCN(C(c2ccccc2)c2nnnn2C2CCCCC2)CC1` (centres undefined), inactive: 7.82%; in that of `CCOC(=O)N1CCC(Nc2cccc(C)c2)CC1`, inactive: 25.3%.
The same measure for `COc1cc(C(=O)NCC2(N(C)C)CCCCC2)ccc1OC(F)F`: inactive: 10.8%; for `O=c1[nH]c2ccccc2n1C1CCN(C(c2cccc3ccccc23)c2nnnn2C2CCCC2)CC1` (centres undefined): inactive: -12.9%.
For the compound `COc1ccc(C(=O)NCC2(N3CCCCC3)CCCCC2)c(OC)c1OC`, the inhibition was inactive: 0.21%.
As to `CC(C)(C)OC(=O)N1CCC(N(C(=O)c2ccccc2)c2ccc(F)cc2)CC1`, the inhibition was inactive: 2.37%.
The same measure for `CCC(c1nnnn1C1CCCC1)N1CCC(n2c(=O)[nH]c3ccccc32)CC1` (centres undefined): inactive: 5.07%; for `COc1ccc(C(=O)NCC2(N3CCCCC3)CCCCC2)cc1`: inactive: 3.16%.
Take `CCCCn1nnnc1C(CC)N1CCC(n2c(=O)[nH]c3ccccc32)CC1` (centres undefined): the inhibition is inactive: 19.8%.
In the case of `O=C(NCC1(N2CCCCC2)CCCCC1)c1cccs1` it was inactive: 11.5%; in that of `CCCCn1nnnc1C(c1cccs1)N1CCC(n2c(=O)[nH]c3ccccc32)CC1` (centres undefined), inactive: 16.6%.
In the case of `O=C(NCC1(N2CCCCC2)CCCCC1)c1ccc(=O)[nH]c1` it was inactive: -0.06%; in that of `Cc1cccc(NC2(C#N)CCN(Cc3ccccc3)CC2)c1`, inactive: 10.6%; in that of `CSc1ccccc1C(=O)NCC1(N2CCCCC2)CCCCC1`, inactive: 1.39%.
The same measure for `Cc1cc(C)cc(N(C(=O)c2ccccc2)C2CCN(C(=O)OC(C)(C)C)CC2)c1`: inactive: 5.75%; for `O=C(NCC1(N2CCCCC2)CCCCC1)c1ccc(Cl)nc1`: inactive: 3.87%.
With `O=c1[nH]c2ccccc2n1C1CCN(C(c2ccccc2OC(F)(F)F)c2nnnn2C2CCCCC2)CC1` (centres undefined), the inhibition is inactive: 3.5%.
As for `O=C(NCC1(N2CCOCC2)CCCCC1)c1cc2ccccc2o1`, the inhibition is inactive: -3.71%.
In the case of `COc1ccc(Cl)cc1C(=O)NCC1(N2CCOCC2)CCCCC1` it was inactive: -3.62%; in that of `O=C(NCC1(N2CCCCC2)CCCCC1)c1ccc(Cl)s1`, inactive: 7.51%.
Take `N#CC1(Nc2ccccc2)CCN(Cc2ccccc2)CC1`: the inhibition is inactive: 5.53%.
The same measure for `O=c1[nH]c2ccccc2n1C1CCN(C(c2cc3ccccc3o2)c2nnnn2C2CCCCC2)CC1` (centres undefined): inactive: 10.5%; for `CCCCn1nnnc1C(c1ccc(OC)cc1)N1CCC(n2c(=O)[nH]c3ccccc32)CC1` (centres undefined): inactive: 19.4%; for `CCOC(=O)N1CCC(Nc2ccc(OC)cc2)CC1`: inactive: 4.74%.
For `CN1CCC(Nc2ccc(F)c(Cl)c2)CC1`, the inhibition was inactive: 17.1%.
`CCOc1ncccc1C(=O)NCC1(N2CCOCC2)CCCCC1`: the inhibition is inactive: 1.12%.
For `O=C(O)C1(Nc2ccccc2)CCN(Cc2ccccc2)CC1`, the inhibition is inactive: 5.96%.
Take `NN(c1ccccc1)C1CCN(CCc2ccccc2)CC1`: the inhibition was inactive: 5.22%.
The same measure for `CC(C)(C)OC(=O)N1CCC(Nc2ccccc2)CC1`: inactive: 14%; for `O=c1[nH]c2ccccc2n1C1CCN(C(c2cc3ccccc3o2)c2nnnn2C2CCCC2)CC1` (centres undefined): inactive: 9.04%.
In the case of `CCCOc1ccc(C(=O)NCC2(N(C)C)CCCCC2)cc1` it was inactive: 9.38%.
In the case of `COc1cc(OC)cc(C(=O)NCC2(N3CCOCC3)CCCCC2)c1` it was inactive: 4.37%; in that of `COc1cccc(C(c2nnnn2C2CCCC2)N2CCC(n3c(=O)[nH]c4ccccc43)CC2)c1OC` (centres undefined), inactive: 16.1%.
In the case of `COc1cccc(C(=O)N(c2cc(C)cc(C)c2)C2CCN(C(=O)OC(C)(C)C)CC2)c1`, the inhibition is inactive: 4.82%.
As to `CN1CCC(Nc2ccc(Cl)cc2)CC1`, the inhibition was inactive: 5.88%.
The same measure for `CCC(c1nnnn1C1CCCCC1)N1CCC(n2c(=O)[nH]c3ccccc32)CC1` (centres undefined): inactive: -6.62%.
Take `COc1cccc(C(c2nnnn2C2CCCCC2)N2CCC(n3c(=O)[nH]c4ccccc43)CC2)c1OC` (centres undefined): the inhibition was inactive: 11.8%.
With `CC(=O)N(c1ccccc1)C1CCNCC1`, the inhibition was inactive: 0.02%.
In the case of `COc1cc(OC)cc(C(=O)NCC2(N3CCCCC3)CCCCC2)c1` it was inactive: 9.77%; in that of `O=c1[nH]c2ccccc2n1C1CCN(C(c2ccnc3ccccc23)c2nnnn2C2CCCCC2)CC1` (centres undefined), inactive: 13.6%.
On to `Fc1ccccc1NC1CCN(Cc2ccccc2)CC1`, for which the inhibition was inactive: -4.64%.
The same measure for `Cc1ccc(C(=O)NCC2(N3CCCCC3)CCCCC2)o1`: inactive: 0.14%.
The same measure for `Cc1ccc(NC2(C#N)CCN(Cc3ccccc3)CC2)cc1`: inactive: 11.4%; for `COc1ccc(C(c2nnnn2C2CCCCC2)N2CCC(n3c(=O)[nH]c4ccccc43)CC2)cc1` (centres undefined): inactive: -10.4%; for `CCN1CCC(Nc2cccc(F)c2)CC1`: inactive: -9.33%.
On to `CC(C)(C)n1nnnc1C(c1ccnc2ccccc12)N1CCC(n2c(=O)[nH]c3ccccc32)CC1` (centres undefined), for which the inhibition is inactive: 4.79%.
The same measure for `Cc1ccccc1NC1(C#N)CCN(Cc2ccccc2)CC1`: inactive: 6.37%; for `CN(C)c1ccc(C(=O)NCC2(N3CCCCC3)CCCCC2)cc1`: inactive: 10.6%; for `Cn1c(=O)[nH]cc(N(CCCl)CCCl)c1=O`: inactive: 10.3%.
In the case of `O=C(NCC1(N2CCCCC2)CCCCC1)c1ccco1` it was inactive: 4.57%; in that of `N#Cc1ccc(C(=O)NCC2(N3CCCCC3)CCCCC2)cc1`, inactive: -0.14%.
The same measure for `CC(C)(C)OC(=O)N1CCC(N(C(=O)c2ccccc2)c2ccc(Cl)cc2)CC1`: inactive: 2.43%.
In the case of `CN(C)C1(CNC(=O)c2cccc(C#N)c2)CCCCC1`, the inhibition was inactive: -1.35%.
As for `O=c1[nH]c2ccccc2n1C1CCN(C(c2ccccc2)c2nnnn2C2CCCC2)CC1` (centres undefined), the inhibition is inactive: 13.7%.
For the compound `CCCN1CCC(Nc2cc(OC)cc(OC)c2)CC1`, the inhibition is inactive: -3.9%.
In the case of `Cc1cc(N(CCCl)CCCl)ccc1C=O` it was inactive: 9.84%.
Turning to `c1ccc(CN2CCC(Nc3ccccc3)CC2)cc1`, the inhibition is inactive: -0.39%.
Take `CC(C)(C)n1nnnc1C(c1cccc2ccccc12)N1CCC(n2c(=O)[nH]c3ccccc32)CC1` (centres undefined): the inhibition was inactive: 8.23%.
The same measure for `COc1cc(C(=O)NCC2(N3CCOCC3)CCCCC2)cc(OC)c1C`: inactive: 3.41%; for `CCCCn1nnnc1C(c1ccccc1)N1CCC(n2c(=O)[nH]c3ccccc32)CC1` (centres undefined): inactive: 7.79%; for `O=C(NCC1(N2CCOCC2)CCCCC1)c1cc(Br)ccc1Cl`: inactive: -1.34%.
The same measure for `O=c1[nH]c2ccccc2n1C1CCN(C(c2cccs2)c2nnnn2C2CCCCC2)CC1` (centres undefined): inactive: 0.73%; for `O=c1[nH]c2ccccc2n1C1CCN(C(c2ccnc3ccccc23)c2nnnn2C2CCCC2)CC1` (centres undefined): inactive: 10.8%; for `COc1ccc(C(=O)NCC2(N3CCOCC3)CCCCC2)cc1OC`: inactive: 1.34%.
In the case of `CCOC(=O)N1CCC(Nc2ccc(C)cc2)CC1` it was inactive: -8.68%; in that of `COc1cccc(C(c2nnnn2C(C)(C)C)N2CCC(n3c(=O)[nH]c4ccccc43)CC2)c1OC` (centres undefined), inactive: 9.08%; in that of `N/C(=N\O)c1c(N)no[n+]1[O-]`, inactive: -0.23%.
Consider `O=c1[nH]c2ccccc2n1C1CCN(C(c2cccs2)c2nnnn2C2CCCC2)CC1` (centres undefined), for which the inhibition is inactive: 6.17%.
Consider `CCCCn1nnnc1C(c1cccc(OC)c1OC)N1CCC(n2c(=O)[nH]c3ccccc32)CC1` (centres undefined), for which the inhibition is inactive: 11.9%.
